# Measured affinities in a library of Ab-14 heavy chain variants

Source: Li et al. 2023 (doi:10.1038/s41467-023-39022-2), MIT Lincoln Laboratory and A-Alpha Bio; data file from the FLAb repository.

All variants were tested on one target, the spike HR2 peptide PDVDLGDISGINAS (SARS-CoV-2).

Parent: Ab-14, a human scFv built as VH, the linker GGGGSGGGGSGGGGS, VL. Only the CDRs of the heavy chain vary.
VH: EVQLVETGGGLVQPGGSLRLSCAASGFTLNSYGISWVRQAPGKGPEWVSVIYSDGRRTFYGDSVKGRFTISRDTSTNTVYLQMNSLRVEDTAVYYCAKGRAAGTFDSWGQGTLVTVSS
VL: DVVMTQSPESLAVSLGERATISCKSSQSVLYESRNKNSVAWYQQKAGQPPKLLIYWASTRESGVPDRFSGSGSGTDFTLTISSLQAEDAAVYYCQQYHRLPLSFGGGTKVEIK

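This is the validation round: designs drawn from the data on random variants, tested in the same kind of assay. Their group label is 14H_GPLM_HC (GPLM: also part of the Gaussian process libraries; HC: hill climbing; a sequence that several methods proposed may carry one label only). Affinity was read by AlphaSeq, a pooled yeast mating assay with surface-displayed partners. After mating in shaken culture at 30 °C for 16 h, diploids were selected and their barcode pairs sequenced. A regression on co-assayed BCL2-family reference pairs converts the normalised counts of each replicate to an apparent Kd. There are six technical replicates.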

Variants are written as CDR1, CDR2 and CDR3 of the heavy chain (limits as in the source). Parent: GFTLNSYGIS, VIYSDGRRTFYGDSVK, GRAAGTFDS.
Numbers give log10(Kd / nM), so 0 is 1 nM and 3 is 1 µM. Smaller is tighter.
"n.d." means that the variant was in the library but no mating with the target was seen in that replicate; the authors take this as a sign of poor binding, and no number exists.

| CDR-H1 | CDR-H2 | CDR-H3 | log10 Kd, replicates | control signals |
|---|---|---|---|---|
| GFDLNSYGIS | VIYSDGRRTFYQDSVK | GKAAGTFDS | n.d. / n.d. / n.d. / n.d. / n.d. / n.d. | 1 of 18 (-0.11) |
| GFDLNSYGIS | VIYSDGRRTFYCDSVK | GREAGTFDS | 0.19 / 0.55 / 0.56 / 0.12 / 0.65 / 0.32 | 0 of 18 |
| GFTLDSYGIS | VIYSDGRRTFYGDSVK | GRQAGTFDS | 1.10 / 0.90 / 1.29 / 0.95 / 1.73 / 1.53 | 0 of 18 |
| GFTLNDYGIS | VIYSDGRRTFYDDSVK | GRAAGTFMS | n.d. / n.d. / n.d. / n.d. / n.d. / n.d. | 0 of 18 |
| GFDLNEYGIS | VIYSDGRRTFYGDSVK | GRAAVTFDQ | n.d. / n.d. / 2.20 / n.d. / n.d. / 2.82 | 2 of 18 (2.18) |
| GFTLNSYGIS | VIYSDGRRTFYSDSVK | GAAGGTFDV | n.d. / n.d. / 0.83 / n.d. / 3.22 / n.d. | 0 of 18 |
| GFTLNDYGIS | VIYSDGRRTFYGDSVK | GRAAGTFMS | 1.24 / 0.44 / n.d. / 0.85 / 1.20 / 0.42 | 0 of 18 |
| GFTLNQYGIS | VIYSDGRRTAYSDSVK | GRAAGTFDS | 1.41 / 0.22 / 0.14 / 0.31 / -0.06 / 0.02 | 0 of 18 |
| GFTLNNYGIS | VIYSDGRRTFYSDSVK | GQLAGTFDS | 0.58 / -0.01 / 0.38 / 0.23 / 0.44 / 1.02 | 0 of 18 |
| GFSLNQYGIS | VIYSDGRRTFYSDSVK | GSAAGTFDS | 0.00 / 0.15 / -0.49 / -0.42 / -0.08 / -0.09 | 0 of 18 |
| GFTLNEYGIS | VIYSDGRRTFYADSVK | GRFAGTFDK | 0.72 / 1.15 / 1.27 / 0.13 / 0.46 / 0.68 | 0 of 18 |
| GFTLNDYGIS | VIYSDGRRTFYIDSVK | GRAAGQFDS | n.d. / n.d. / n.d. / n.d. / n.d. / n.d. | 0 of 18 |
| GFTLNDYGIS | VIYSDGRRTFYDDSVK | GRAAGTFIS | n.d. / n.d. / n.d. / n.d. / n.d. / n.d. | 0 of 18 |
| GFSLNDYGIS | VIYSDGRRTFYGDSVK | GRMAGTFIS | n.d. / n.d. / n.d. / n.d. / n.d. / n.d. | 0 of 18 |
| GFDLNSYGIS | VIYSDGRRTFYADSVK | GRAAGTFNS | n.d. / -0.18 / n.d. / n.d. / 1.09 / n.d. | 0 of 18 |
| GFTLNEYGIS | VIYSDGIRTFYGDSVK | GRAAGTFDK | -0.11 / 0.01 / 0.35 / -0.13 / -0.16 / 0.07 | 0 of 18 |
| GFTLNSYGIS | VIYSDGRRTFYSDSVK | GQNAGTFDS | n.d. / n.d. / n.d. / n.d. / n.d. / n.d. | 0 of 18 |
| GFDLNSYGIS | VIYSDGRRTFYGDSVK | GKAAGCFNS | n.d. / n.d. / n.d. / n.d. / n.d. / n.d. | 0 of 18 |
| GFSLNSYGIS | VIYSDGRRTFYGDSVK | GRAAGHFTS | n.d. / n.d. / n.d. / n.d. / n.d. / n.d. | 0 of 18 |
| GFTLNEYGIS | VIYSDGRRTFYGDDVK | GRAAVTFDQ | 1.72 / n.d. / n.d. / n.d. / n.d. / n.d. | 0 of 18 |
| GFTLNEYGIS | VIYSDGRRTFYSDSVK | GRAAGFFMS | -0.01 / -0.55 / -0.17 / -0.27 / -0.54 / 0.11 | 0 of 18 |
| GFTLNDYGIS | VIYSDGRRTFYGDSVK | GRQAGTFIS | n.d. / n.d. / n.d. / n.d. / n.d. / n.d. | 0 of 18 |
| GFTLNEYGIS | VIYSDGRRTFYTDSVK | GETAGTFDS | 0.42 / 0.64 / 0.52 / -0.30 / 0.52 / 0.37 | 1 of 18 (1.34) |
| GFTLNDYGIS | VIYSDGRRTFYGDSVK | GRIAGTFDT | 1.83 / -0.10 / 0.03 / -0.41 / 0.49 / 0.06 | 0 of 18 |
| GFDLNSYGIS | VIYSDGRRTAYGDSVK | GNAAGTFDS | 0.20 / 0.74 / 0.42 / 1.22 / 0.36 / 0.69 | 0 of 18 |
| GFDLNSYGIS | VIYSDGRRTFYGDSVK | GREAGTFNS | 0.65 / 0.27 / 0.51 / -0.07 / 0.07 / 0.73 | 0 of 18 |
| GFDLNSYGIS | VIYSDGRRTFYADSVK | GRAAGWFNS | n.d. / n.d. / n.d. / n.d. / n.d. / n.d. | 0 of 18 |
| GFTLNEYGIS | VIYSDGRRTFYGDSVK | GRTAGTFIF | n.d. / n.d. / n.d. / n.d. / n.d. / n.d. | 0 of 18 |
| GFSLNEYGIS | VIYSDGRRTFYGDSVK | GRAAVTFDT | n.d. / n.d. / n.d. / n.d. / n.d. / n.d. | 0 of 18 |
| GFTLNSYGIS | VIYSDGRRTFYSDSVK | GRAGGTFDT | n.d. / 1.50 / 0.78 / 1.10 / 0.48 / 0.83 | 0 of 18 |
| GFTLNQYGIS | VIYSDGRRTFYSDSVK | GNAAGTFDS | 0.27 / -0.92 / -0.41 / -0.88 / -0.32 / -0.47 | 0 of 18 |
| GFTLNEYGIS | VIYSDGKRTFYTDSVK | GRFAGTFDS | 0.31 / 0.31 / 0.11 / 0.08 / 0.29 / 0.54 | 3 of 18 (2.71) |
| GFTLNEYGIS | VIYSDGYRTFYGDSVK | GRAAVTFDT | n.d. / n.d. / n.d. / n.d. / n.d. / n.d. | 0 of 18 |
| GFTLNEYGIS | VIYSDGRRTFYSDSVK | GRAAGCFDS | 1.59 / 2.27 / 1.59 / n.d. / 2.16 / n.d. | 0 of 18 |
| GFSLNDYGIS | VIYSDGRRTFYGDSVK | GRVAGTFIS | n.d. / n.d. / 0.85 / 1.76 / n.d. / 1.78 | 0 of 18 |
| GFTLNSYGIS | VIYSDGYRTFYGDSVK | GRAAVTFDQ | n.d. / n.d. / n.d. / n.d. / n.d. / n.d. | 0 of 18 |
| GFTLEEYGIS | VIYSDGRRTFYGDSVK | GRAAGTFIS | n.d. / n.d. / n.d. / n.d. / n.d. / n.d. | 0 of 18 |
| GFDLNSYGIS | VIYSDGQRTFYGDSVK | GRTAGTFDS | 0.46 / 0.24 / 0.30 / 0.26 / 0.34 / 0.61 | 0 of 18 |
| GFDLNSYGIS | VIYSDGRRTFYGDAVK | GQAAGTFDS | 0.13 / 0.38 / 0.12 / 0.25 / 0.02 / 0.42 | 0 of 18 |
| GFTLNSYGIS | VIYSDGIRTFYDDSVK | GQLAGTFDS | n.d. / 0.56 / 0.92 / 0.33 / 0.38 / 1.20 | 1 of 18 (2.75) |
| GFTLNEYGIS | VIYSDGRRTFYMDSVK | GRNAGTFDS | 0.08 / 0.30 / -0.10 / 0.87 / 0.61 / 0.30 | 0 of 18 |
| GFGLNEYGIS | VIYSDGRRTFYQDSVK | GRTAGTFDS | 0.06 / 0.26 / 0.17 / -0.32 / -0.02 / 0.07 | 1 of 18 (2.00) |
| GFTLNSYGIS | VIYADGRRTFYGDSVK | GRVAGTFKS | n.d. / n.d. / n.d. / 0.99 / 0.22 / 0.83 | 0 of 18 |
| GKTLNEYGIS | VIYSDGRRTFYTDSVK | GRFAGTFDS | n.d. / 0.92 / n.d. / n.d. / n.d. / n.d. | 0 of 18 |
| GFTLNSYGIS | VIYSDGWRTFYDDSVK | GQLAGTFDS | n.d. / n.d. / 1.73 / n.d. / n.d. / n.d. | 0 of 18 |
| GFTLMSYGIS | VIYADGRRTFYGDSVK | GRAAGTFKS | n.d. / n.d. / n.d. / n.d. / n.d. / n.d. | 0 of 18 |
| GFTLNEYGIS | VIYSDGHRTFYTDSVK | GRFAGTFDS | n.d. / n.d. / -1.19 / n.d. / -1.59 / n.d. | 0 of 18 |
| GFTLNSYGIS | VIYADGRRTFYGDSVK | GRLAGTFKS | n.d. / n.d. / n.d. / n.d. / n.d. / n.d. | 0 of 18 |

Picked from the list: the 5 lowest averages where every replicate gave a value.

CDR-H1,CDR-H2,CDR-H3,"log10 Kd, replicates",control signals
GFTLNQYGIS,VIYSDGRRTFYSDSVK,GNAAGTFDS,0.27 / -0.92 / -0.41 / -0.88 / -0.32 / -0.47,0 of 18
GFTLNEYGIS,VIYSDGRRTFYSDSVK,GRAAGFFMS,-0.01 / -0.55 / -0.17 / -0.27 / -0.54 / 0.11,0 of 18
GFSLNQYGIS,VIYSDGRRTFYSDSVK,GSAAGTFDS,0.00 / 0.15 / -0.49 / -0.42 / -0.08 / -0.09,0 of 18
GFTLNEYGIS,VIYSDGIRTFYGDSVK,GRAAGTFDK,-0.11 / 0.01 / 0.35 / -0.13 / -0.16 / 0.07,0 of 18
GFGLNEYGIS,VIYSDGRRTFYQDSVK,GRTAGTFDS,0.06 / 0.26 / 0.17 / -0.32 / -0.02 / 0.07,1 of 18 (2.00)

Nonspecific signal, from three strains lacking the peptide, appeared in 1% of pairings of all heavy chain designs, centred on 2.08 (5% of these signals below 0.84); values are not corrected for it. Also given: how often the same scFv was detected with the empty control strains, with their mean in brackets.
The authors averaged sequences with at least three values out of six and counted those with two or fewer as poor binders.
A sequence measured in both rounds can read differently, since the two assays cover different ranges.